Data on 13 compounds can be found in patent publication US20240325362A1, “NOVEL THERAPEUTIC METHOD FOR ENHANCING MITOCHONDRIAL FUNCTION, TREATING MITOCHONDRIAL DISEASES THEREBY, AND COMPOUNDS USED THEREIN” (STANDIGM INC., priority 2020, published 2024).

Test [1] relates to SH-SY5Y human neuroblastoma cells. In words: Overall protection in MPP+-lesioned human cell model. The class given is cell-based. The settings on record: for cell-protective ability against MPP+ (FIG. 4): 0.01-100 nM, FIGS. 4(A)-4(E); for cell-protective ability against MPP+ (FIG. 4) / protective effects on mitochondrial functions (FIG. 3): 4 hours before 1 mM MPP+ for 20 hours; for protective activity on mitochondria and cells at sub-nanomolar doses: MPP+-lesioned human cell model; for protective effects on mitochondrial functions (FIG. 3): 0.001-10 µM, FIGS. 3(A)-3(E); for protective effects against MPP+ (FIG. 2) / protective effects against MPP+ induced cellular and mitochondrial damages (FIG. 1): compound 4 hours before 1 mM MPP+ for 20 hours; for protective effects against MPP+ (FIG. 2): FIGS. 2(A)-2(C); for protective effects against MPP+ induced cellular and mitochondrial damages (FIG. 1): FIGS. 1(A), 1(B).

For test [2] the test system is unchanged. The class given is cell-based. The settings on record: 0.01-100 nM; 1 mM MPP+ 20 hours. The protocol: Similarly, total and mitochondrial ROS generations were measured using CM-H2DCFDA and MitoSox, respectively. Cells were incubated with 1 µM CM-H2DCFDA or 5 μM MitoSox and 0.5 μM Hoechst 33342 for 1 hour at 37° C.
Fluorescence intensities at 550 nm/580 nm for TMRE, at 510 nm/580 nm for MitoSox, or at 494 nm/522 nm for CM-H2DCFDA were normalized by HOECHST® intensity at 355 nm/480 nm (Spectramax Gemini EM, Molecular Devices, Sunnyvale, CA, USA).

For the compound “3-O-(2-methoxyethyl) 5-O-propoan-2-yl 2,6-dimethyl-4-(3- nitrophenyl)-1,4- dihydropyridine-3.5- dicarboxylate [nimodipine]”, in test [1], the “cell-protective ability against MPP+ (FIG. 4)” value is reported as “cell-protective ability”; the “protective activity on mitochondria and cells at sub-nanomolar doses” value is “protective activity on mitochondria and cells even under sub-nanomolar doses”. Besides, in test [2], the “intracellular ROS content, FIG. 4(E)” value was “reduced ROS production significantly” and the “mitochondrial ROS content, FIG. 4(D)” value is “reduced ROS production significantly”.
As for “5-O-[(3R)-1- benzylpiperidin- 3-yl] 3-O-methyl (4R)-2,6- dimethyl-4-(3- mitrophenyl)-1,4- dihydropyridine- 3,5-dicarboxylate [benidipine]”, in test [1], the “cell-protective ability against MPP+ (FIG. 4)” value is reported as “cell-protective ability”.
Still for that read-out and setting: in the case of “5-O-ethyl 3-O-methyl 2,6-dimethyl-4-(3- nitrophenyl)-1,4- didropyridine-3,5- dicarboxylate [nitrendipine]” it was “cell-protective ability”; in that of `CCN(CC)C(=O)N1CCN(C)CC1` [diethylcarbamazine, N,N-diethyl-4-methylpiperazine-1-carboxamide], “cell-protective ability”.
On to `COC(=O)C1=C(C)NC(C)=C(C(=O)OC(C)(C)CN(C)CCC(c2ccccc2)c2ccccc2)C1c1cccc([N+](=O)[O-])c1` (stereo not shown) [lercanidipine, 5-O-[1-[3,3-diphenylpropyl (methyl)amino]-2-methylpropan-2-yl] 3-O-methyl 2,6-dimethyl-4-(3-nitrophenyl)-1,4-dihydropyridine-3,5-dicarboxylate], for which, in test [1], the “protective effects on mitochondrial functions (FIG. 3)” value (“protective effects … (FIG. 3)” below) was “protective effects” and the “protective effects against MPP+ (FIG. 2)” value is on record as “Protective Effects”.
On to `CC(=O)[C@@]1(O)CC[C@H]2[C@@H]3C=C(C)C4=CC(=O)CC[C@]4(C)[C@H]3CC[C@@]21C` [megestrol, (8R,9S,10R,13S,14S, 17R)-17-acetyl-17-hydroxy-6,10, 13-trimethyl-2,8,9,11,12,14,15, 16-octahydro-1H-cyclopenta[a] phenanthren-3-one], for which the “protective effects against MPP+ (FIG. 2)” value in test [1] is “Protective Effects”.
Turning to “N-(3-methyl-5- sulfamoyl-1,3,4- thiadazol-2- ylidene)acetamide [methazolamide]”, the “cell-protective ability against MPP+ (FIG. 4)” value in test [1] was “cell-protective ability”.
As for cinepazide, in test [1], the “protective effects … (FIG. 3)” value is “protective effects”; the “protective effects against MPP+ induced cellular and mitochondrial damages (FIG. 1)” value (shortened to “protective effects … (FIG. 1)”) is recorded as “protective effects”.
fusidic acid: the “protective effects against MPP+ (FIG. 2)” value in test [1] was “Protective Effects”.
Take mitiglinide: in test [1], the “protective effects … (FIG. 1)” value is recorded as “protective effects”.
On to mycophenolate-mofetil, for which, in test [1], the “protective effects … (FIG. 3)” value is recorded as “protective effects” and the “protective effects against MPP+ (FIG. 2)” value was “Protective Effects”.
In the case of nicardipine, in test [1], the “cell-protective ability against MPP+ (FIG. 4)” value is “cell-protective ability”; the “protective activity on mitochondria and cells at sub-nanomolar doses” value is “protective activity on mitochondria and cells even under sub-nanomolar doses”. Further, in test [2], the “intracellular ROS content, FIG. 4(E)” value is recorded as “reduced ROS production significantly” and the “mitochondrial ROS content, FIG. 4(D)” value is “reduced ROS production significantly”.
On to preladenant, for which, in test [1], the “protective effects … (FIG. 1)” value is listed as “protective effects”.
